SMILES strings stand for the structures. The list shows a part of the results, in another mix than the full data. Activity calls are given as the source filed them.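 The calls were made as follows: active = activation, scaled between plate controls, above about 75% (limit read from the data); inactive = activation under that limit.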

This assay can be described thus: inhibitors of zVAD-triggered necroptosis, primary screen, L929 cells (AID 1377).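 Also: 0% = zVAD with DMSO and 100% = DMSO alone without zVAD.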 To be noted: ATP luminescence, 24 h, at 10 µM, hits give high values; with zVAD 60 µM unless noted.
As to `CN(C)c1cccc(C(=O)NCC2(N3CCCCC3)CCCCC2)c1`, the viability rescue is inactive: -0.000562%.

Regarding `COc1ccc(CN(CCCl)CCCl)cc1Cl`, the viability rescue is inactive: 0.03%.

Take `CC(C)c1ccc(NC2CCN(C(=O)OC(C)(C)C)CC2)cc1`: the viability rescue is inactive: 5.9%.

Consider `CN1CCC(Nc2cccc(F)c2)CC1`, for which the viability rescue is inactive: 0.37% [with zVAD 20 µM].

As to `O=C(NCC1(N2CCCCC2)CCCCC1)c1cccc([N+](=O)[O-])c1`, the viability rescue was inactive: -0.03%.

For `N#CC1(Nc2ccccc2)CCN(CCc2ccccc2)CC1`, the viability rescue was inactive: 0.53% [with zVAD 20 µM].

Take `CN1CCN(CCOC(=O)C(O)(c2ccccc2)c2ccccc2)CC1`: the viability rescue was inactive: 0.44%.

On to `COc1ccc(NC2CCN(C(=O)OC(C)(C)C)CC2)cc1`, for which the viability rescue was inactive: -0.82%.

On to `O=C(NCC1(N2CCOCC2)CCCCC1)c1cc(=O)[nH]c2ccccc12`, for which the viability rescue was inactive: 0.08%.

On to `COc1ccc(NC2CCN(CCc3ccccc3)CC2)c(OC)c1`, for which the viability rescue was inactive: 1.68% [with zVAD 20 µM].

For `CCOc1ccc(C)cc1CN(CCCl)CCCl`, the viability rescue was inactive: 1%.

Turning to `Cc1ccc(OCC(C)C)c(CN(CCCl)CCCl)c1`, the viability rescue is inactive: -0.7%.

As for `COc1ccc(C(=O)NCC2(N3CCCCC3)CCCCC2)c(OC)c1OC`, the viability rescue is inactive: -0.18%.

Take `CCOC(=O)N1CCC(Nc2ccc(OC)cc2)CC1`: the viability rescue was inactive: 1.73%.

On to `O=C(OC1CN2CCC1CC2)C1c2ccccc2Oc2ccccc21` (stereo not drawn), for which the viability rescue is inactive: -0.93% [with zVAD 20 µM].

Regarding `N#CC1(Nc2ccccc2)CCN(Cc2ccccc2)CC1`, the viability rescue is inactive: -0.02%.

Take `O=C(NCC1(N2CCOCC2)CCCCC1)c1cc2ccccc2o1`: the viability rescue is inactive: 1.7%.

With `CC(C)(C)OC(=O)N1CCC(Nc2ccccc2)CC1`, the viability rescue is inactive: 2.8%.

As to `CCOc1ncccc1C(=O)NCC1(N2CCOCC2)CCCCC1`, the viability rescue is inactive: 0.67% [with zVAD 20 µM].

Take `CCCOc1ccc(C)cc1CN(CCCl)CCCl`: the viability rescue is inactive: -0.23%.

`CCC(CO)(C(=O)OC1CN2CCC1CC2)c1ccccc1` (stereo not drawn): the viability rescue is inactive: 0.06% [with zVAD 20 µM].

On to `COc1cc(OC)cc(C(=O)NCC2(N3CCOCC3)CCCCC2)c1`, for which the viability rescue was inactive: 1.41%.

Turning to `CN(C)c1ccc(C(=O)NCC2(N3CCCCC3)CCCCC2)cc1`, the viability rescue is inactive: -0.46%.

Take `N#Cc1ccc(C(=O)NCC2(N3CCCCC3)CCCCC2)cc1`: the viability rescue was inactive: -0.57%.

As to `c1ccc(CN2CCC(Nc3ccccc3)CC2)cc1`, the viability rescue is inactive: -1.12%.

With `COc1ccc(C(=O)NCC2(N3CCOCC3)CCCCC2)cc1OC`, the viability rescue is inactive: 10.4%.

Take `O=C(OC1CN2CCC1CC2)C1c2ccccc2C=Cc2ccccc21` (stereo not drawn): the viability rescue was inactive: -0.02%.

For `N/C(=N\O)c1c(N)no[n+]1[O-]`, the viability rescue was inactive: -0.07% [with zVAD 20 µM].
